This experiment concerns the target T1, hMAO-A (Homo sapiens, UniProt P21397).
T1 construct: purchased Sigma-Aldrich; host or cells: insect cells (BTI-TN-5B1-4) infected with recombinant baculovirus; microsomal preparation
The experiment is described as follows: hMAO-A enzymatic inhibition, Amplex Red MAO assay (H2O2 from p-tyramine). It is filed as biochemical. To be noted: Table 2; mean ± S.E.M., n = 3; control assays.

Amino acid sequences for entries named in this document (tags omitted).
UniProt P21397, whole entry: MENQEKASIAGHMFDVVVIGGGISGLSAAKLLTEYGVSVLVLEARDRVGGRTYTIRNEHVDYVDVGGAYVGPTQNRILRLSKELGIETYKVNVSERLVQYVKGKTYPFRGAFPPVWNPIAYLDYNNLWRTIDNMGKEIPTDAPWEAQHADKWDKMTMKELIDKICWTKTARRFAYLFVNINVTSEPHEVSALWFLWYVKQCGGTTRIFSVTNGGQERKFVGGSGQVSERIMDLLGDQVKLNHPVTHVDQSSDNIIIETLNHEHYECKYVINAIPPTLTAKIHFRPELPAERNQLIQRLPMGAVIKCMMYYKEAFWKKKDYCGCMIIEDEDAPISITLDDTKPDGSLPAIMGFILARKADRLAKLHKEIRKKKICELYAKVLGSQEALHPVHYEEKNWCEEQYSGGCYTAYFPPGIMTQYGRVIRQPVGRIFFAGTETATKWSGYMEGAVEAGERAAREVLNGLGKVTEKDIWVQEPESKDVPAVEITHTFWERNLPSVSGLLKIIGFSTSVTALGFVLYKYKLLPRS

SMILES strings stand for the structures.

In general, IC50 refers to the point on the concentration scale where inhibition reaches its midpoint. Higher therefore signals lower potency.

For the molecule `CC(C)NNC(=O)c1ccncc1` [Iproniazide], half-maximal inhibition (IC50) was put at 6.56 ± 0.76 µM.

The values above are taken from paper PMC5109486, “Computational Drug Target Screening through Protein Interaction Profiles” (Scientific Reports, 2016).
